From publication PMC11435093, “Synthesis and Evaluation of ^99mTc(CO)3 Complexes with Ciprofloxacin Dithiocarbamate for Infection Imaging” (Pharmaceutics, 2024)

Tested on: Swiss Albino mice with induced infection (Staphylococcus aureus) and aseptic inflammation (turpentine)
Test: Biodistribution in mice with induced infection and aseptic inflammation
Assay type: in vivo
Conditions: for Urine radioactivity: per sample
Method: The in vivo behavior of HPLC purified technetium-99m complexes 1′–6′ was evaluated through biodistribution studies in Swiss Albino mice (40 ± 5 g) with induced infection and aseptic inflammation. The experiment was conducted in accordance with the guidelines for the protection of animals used for scientific purposes. Mice were divided into groups and prepared for biodistribution studies by inducing infection and aseptic inflammation. Twenty-four hours prior to the injection of the technetium complexes, the left thigh muscle of each mouse was inoculated with 50 µL of a Staphylococcus aureus suspension (1 × 10^6 CFU/mL) to induce infection. Aseptic inflammation was induced in the right thigh muscle by injecting 50 µL of turpentine oil. The technetium-99m complexes were administered intravenously via the tail vein. Each mouse received an injection of 0.037 MBq of the respective technetium-99m complex. The biodistribution was studied at two different time points, 15 min and 120 min post-injection. At each time point, the mice were sacrificed under anesthesia. Blood samples were obtained by cardiac puncture. The organs of interest were collected after dissection, including the liver, heart, kidneys, stomach, intestines, spleen, muscle (normal, infected, and inflamed), lungs, pancreas, and urinary bladder. The organs were made free from adhering tissues and transferred into pre-weighed counting vials. The radioactivity of the collected samples was measured using a shielded well-type gamma counter. The results were expressed as a percentage of injected dose per gram of tissue (% ID/g). The radioactivity ratios in infected muscle to normal muscle and inflamed muscle to normal muscle were calculated to assess the specificity and selectivity of the technetium complexes for infection and inflammation.

Row | Substance | Aseptic Infl. (turpentine inflamed muscle) radioactivity (15 min post i.v. injection) [%ID/g] | Blood radioactivity (15 min post i.v. injection) [%ID/g] | Heart radioactivity (15 min post i.v. injection) [%ID/g] | Infection (S. aureus infected muscle) radioactivity (15 min post i.v. injection) [%ID/g] | Intestines radioactivity (15 min post i.v. injection) [%ID/g] | Kidneys radioactivity (15 min post i.v. injection) [%ID/g] | Stomach radioactivity (15 min post i.v. injection) [%ID/g] | Urine radioactivity (15 min post i.v. injection) [%ID] | Aseptic Infl. (turpentine inflamed muscle) radioactivity (120 min post i.v. injection) [%ID/g] | Blood radioactivity (120 min post i.v. injection) [%ID/g] | Heart radioactivity (120 min post i.v. injection) [%ID/g] | Infection (S. aureus infected muscle) radioactivity (120 min post i.v. injection) [%ID/g] | Stomach radioactivity (120 min post i.v. injection) [%ID/g] | Urine radioactivity (120 min post i.v. injection) [%ID] | Intestines radioactivity (120 min post i.v. injection) [%ID/g] | Pancreas radioactivity (120 min post i.v. injection) [%ID/g]
1 | fac-[M(CO)3(Cip-DTC)(DMPP)] [complex 5′] | 0.51 ± 0.14 | 0.91 ± 0.03 | 2.98 ± 0.46 | 0.94 ± 0.31 | 0.61 ± 0.17 | 3.20 ± 0.35 | 0.53 ± 0.22 | 0.03 ± 0.01 | 2.37 ± 0.34 | 0.66 ± 0.05 | 4.30 ± 1.47 | 3.10 ± 0.46 | 2.33 ± 0.44 | 0.32 ± 0.12 | – | –
2 | fac-[^99mTc(CO)3(Cip-DTC)(H2O)] [complex 1′] | 0.78 ± 0.51 | 14.07 ± 0.83 | 1.93 ± 0.23 | – | – | – | – | 0.15 ± 0.08 | 1.33 ± 0.09 | 7.76 ± 0.29 | 1.58 ± 0.21 | 1.80 ± 0.39 | 1.42 ± 0.30 | 1.57 ± 0.98 | 1.81 ± 0.15 | 0.82 ± 0.06
